Earlier results as cited in US20200163956A1, “DIRECT BRAIN ADMINISTRATION OF CHEMOTHERAPEUTICS TO THE CSF FOR PATIENTS WITH PRIMARY AND SECONDARY BRAIN TUMORS” (Cerebral Therapeutics LLC, priority 2016, published 2020).

Settings: in vivo, iv

Substance: trastuzumab: humanized IgG1 kappa monoclonal antibody for the treatment of metastatic breast cancer
- CSF level lower than plasma levels: 300 fold
